Measured values from PubChem BioAssay AID488924 (Johns Hopkins Ion Channel Center, 2010).
The entries are a selection whose mix differs from that of the whole data set. Calls of active or inactive are those of the source.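 The calls were made as follows: active = membrane potential signal moves up or down beyond 5 SD from buffer-only wells, on both duplicate plates; inactive = the rest.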

Experiment: nonspecific voltage dye response without TRPC6 – cell-based, parental HEK293, counter-screen for TRPC6 modulator project, confirmation (AID 488924)
Conditions: parental HEK293, membrane potential dye fluorescence; at 10 µM

SMILES | membrane potential signal change
CCN(CC)CC(O)COC(=O)C(O)(c1ccccc1)C1CCCCC1 (configuration not stated) | active: 106%
CCN(CC)CCCOC(=O)C(O)(c1ccccc1)c1ccccc1 | inactive
